Assay results published in ChEMBL document CHEMBL3627606, “Development of Novel, CNS Penetrant Positive Allosteric Modulators for the Metabotropic Glutamate Receptor Subtype 1 (mGlu1), Based on an N-(3-Chloro-4-(1,3-dioxoisoindolin-2-yl)phenyl)-3-methylfuran-2-carboxamide Scaffold, That Potentiate Wild Type and Mutant mGlu1 Receptors Found in …” (J Med Chem, 2015).

How the values were obtained:
[1] = species: Homo sapiens; experiment: Intrinsic clearance in human hepatocytes at 1 uM by LC-MS/MS analysis; conditions: read-out: CLH
[2] = species: Homo sapiens; experiment: Selectivity index, ratio of EC50 for human mGlu4 receptor to EC50 for human mGlu1 receptor

Compound | CLint scaled at 1 µM [1] [mL/min/kg] | Ratio EC50 [2]
O=C(Nc1ccc(N2C(=O)c3cccc(Cl)c3C2=O)c(Cl)c1)c1ncccc1Cl | 9.46 | –
O=C(Nc1nc(C(F)(F)F)co1)C1c2ccccc2Oc2ccccc21 | 19.4 | –
Cc1ccoc1C(=O)Nc1ccc(N2C(=O)c3ccncc3C2=O)c(Cl)c1 | 18.6 | –
Cc1ccoc1C(=O)Nc1ccc(N2C(=O)c3ccc(Cl)cc3C2=O)c(Cl)c1 | 2.54 | 27.8
